Test results as given in patent US6375993B1, “Pomegranate extracts and methods of using thereof” (priority 1999, dated 2002).

Experiment: Free radical scavenging capacity (DPPH)
Details: 50 μmol/L of vitamin E; 100 μmol/L DPPH
Description: DPPH (1,1-diphenyl-2-picryl-hydrazyl) is a radical-generating substance which is widely used to monitor free radical scavenging abilities of various antioxidants (51). To analyze free radical scavenging capacity, increasing concentrations of pomegranate juice (0-14 μmol/L of polyphenols) were mixed with 3 mL of 0.1 mmol DPPH/L in ethanol.

Substance: vitamin E
- free radical scavenging (DPPH absorbance at 517 nm): potent free radical scavenger
